Experimental findings from PMC3448668, “Insulin-Like Growth Factor-I E-Peptide Activity Is Dependent on the IGF-I Receptor” (PLoS ONE, 2012) are described below.

Chains of the proteins cited; added tags and fusions are not shown. Residues count along the entry.
UniProt P08069, 31-1367: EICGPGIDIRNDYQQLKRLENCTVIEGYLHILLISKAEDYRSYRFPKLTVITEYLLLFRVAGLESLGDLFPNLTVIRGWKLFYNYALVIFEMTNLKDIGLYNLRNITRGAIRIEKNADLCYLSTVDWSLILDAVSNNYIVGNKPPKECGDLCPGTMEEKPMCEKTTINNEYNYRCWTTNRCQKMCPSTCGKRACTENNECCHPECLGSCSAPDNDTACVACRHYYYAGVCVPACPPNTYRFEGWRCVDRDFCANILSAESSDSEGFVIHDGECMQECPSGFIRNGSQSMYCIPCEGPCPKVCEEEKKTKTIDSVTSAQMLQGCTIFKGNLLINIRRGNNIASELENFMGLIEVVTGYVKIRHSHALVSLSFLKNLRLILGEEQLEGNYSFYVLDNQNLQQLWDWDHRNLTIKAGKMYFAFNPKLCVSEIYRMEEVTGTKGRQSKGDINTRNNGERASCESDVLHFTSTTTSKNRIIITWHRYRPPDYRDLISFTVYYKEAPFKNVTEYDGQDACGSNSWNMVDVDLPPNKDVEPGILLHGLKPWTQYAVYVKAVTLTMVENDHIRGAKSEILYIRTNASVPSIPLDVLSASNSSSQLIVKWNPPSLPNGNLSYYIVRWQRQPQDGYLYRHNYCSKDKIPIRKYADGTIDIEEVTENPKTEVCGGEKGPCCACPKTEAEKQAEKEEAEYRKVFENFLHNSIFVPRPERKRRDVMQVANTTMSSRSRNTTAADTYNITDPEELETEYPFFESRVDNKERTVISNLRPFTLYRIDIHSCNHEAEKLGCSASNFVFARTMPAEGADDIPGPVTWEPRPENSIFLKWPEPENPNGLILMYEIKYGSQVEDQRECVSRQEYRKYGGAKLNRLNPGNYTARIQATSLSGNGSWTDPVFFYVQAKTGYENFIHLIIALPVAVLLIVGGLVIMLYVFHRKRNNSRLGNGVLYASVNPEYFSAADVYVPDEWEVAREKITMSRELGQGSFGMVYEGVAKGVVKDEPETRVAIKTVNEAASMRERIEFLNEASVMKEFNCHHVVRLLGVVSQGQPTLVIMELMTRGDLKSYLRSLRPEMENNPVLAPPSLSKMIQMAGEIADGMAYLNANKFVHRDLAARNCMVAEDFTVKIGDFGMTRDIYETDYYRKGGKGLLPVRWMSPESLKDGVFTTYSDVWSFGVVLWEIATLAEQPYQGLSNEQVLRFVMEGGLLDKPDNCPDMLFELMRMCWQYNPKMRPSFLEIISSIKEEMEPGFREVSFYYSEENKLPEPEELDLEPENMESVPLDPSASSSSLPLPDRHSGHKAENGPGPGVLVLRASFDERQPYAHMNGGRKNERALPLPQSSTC

This experiment deals with T1, IGF-IR phosphorylation in P6 cells overexpressing IGF-IR (Homo sapiens, UniProt P08069).
T1 construct: expressed in transfected cells; host or cells: P6 cells (IGF-IR over-expressing mouse fibroblasts, kept under G418)
The experiment in a line: Kinase receptor activation (KIRA) assay. Particulars: 15 min, IGF-I 2 nM and 10 nM, N = 6 wells. In kind it is cell-based, mouse. On the procedure: To determine if E-peptides directly activate IGF-IR, a KIRA assay was preformed as previously described with a few alterations. Briefly, 2.5×10^4 P6 cells, which overexpress IGF-IR (another kind gift from the Baserga lab) were seeded into 96-well plates. They were maintained in growth media supplemented with 200 µg/ml G418. The cells were starved for 6 hours, and then treated with synthetic E-peptides and/or IGF-I for 15 minutes. Cells were lysed and IGF-IR was captured onto an ELISA plate coated with an antibody to IGF-IR (MAB1120, Millipore, Billerica, MA). An HRP-conjugated antibody to phosphorylated tyrosines (16–454, Millipore) and TMB substrate (N301, Thermo Scientific, Rockfort, IL) was used for colorimetric quantification. Absorbance was read at 450 nm via the SpectraMax M5 plate reader (Molecular Devices, Sunnyvale, CA), which served as an indicator of IGF-IR phosphorylation. The IGF-IR localization assay was based on, [75], [76] and preformed as described above, except after treatment and before lysis, cell surface proteins were labeled with 0.3 mg/ml sulfo-NHS-biotin (21217, Thermo Scientific, Rockfort, IL) in PBS for 1 hour at 4°C. Two ELISA plates coated as above were utilized. Half of the cell lysates were transferred to one plate to measure cell-surface IGF-IR, visualized by an HRP-conjugated strepavidin antibody. […]

Regarding “IGF-I: recombinant human IGF-I (Gemini Bio-Products), positive control”, the “IGF-IR phosphorylation by IGF-I alone (KIRA)” value is “stimulated IGF-IR phosphorylation dramatically and significantly”.
